The source of these data is PMC9476706, “Integrating pharmacokinetics and network analysis to investigate the mechanism of Moutan Cortex in blood-heat and blood stasis syndrome” (Chinese Medicine, 2022).

The nature of the series: Pharmacokinetic study of nine absorbed components in rat serum after oral RMC extract (UHPLC-DAD).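 For all read-outs here: BHS model made by subcutaneous yeast suspension then two adrenaline injections with ice-water immersion, normal rats given saline instead, serum analytes quantified by UHPLC-DAD at 254 nm.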 As to conditions: for AUC / Cmax / MRT / T1/2 / Tmax: serum, oral RMC extract 10 mL/kg (equal to 6 g/mL of RMC) once a day for 7 days, n = 6.

With oxypaeoniflorin, for the setting “BHS-RMC group (BHS model rats)”, the AUC (in general, the area under the concentration-time curve, a measure of exposure) is given as 24.16 ± 3.09↓ μg/mL*h; the Cmax (as a rule, the highest concentration seen after dosing) is on record as 2.09 ± 0.04↓ μg/mL; the MRT (as a rule, the average time that molecules of a dose stay in the body) is listed as 21.59 ± 3.42↑ h; the T1/2 is listed as 15.13 ± 2.25↑ h. Also, for the setting “BHS-RMC group (BHS model rats)”, the time of peak concentration (Tmax) (in general, the time at which the peak concentration occurs) is listed as 0.50 ± 0.00↓ h. Where the note is “BHS-RMC rats, oral RMC extract”, the “time after which the compound was not detected” value turned out to be 6 h. Further, under “N-RMC group (normal rats)”, the exposure (AUC) worked out at 45.72 ± 1.4 µg·h/mL, the Cmax is 10.23 ± 0.11 µg/mL, the MRT is listed as 5.53 ± 0.50 h and the T1/2 is given as 3.08 ± 0.98 h. Also, the Tmax (N-RMC group (normal rats)) is reported as 4.00 ± 0.00 h.
